Data: US20190247357A1, “NANOPARTICLE FORMULATIONS AND METHODS OF MAKING AND USING THEREOF” (Abraxis BioScience, LLC, priority 2016, published 2019)

What was measured:
[1] = Particle size of antibody-conjugated nab-paclitaxel nanoparticles; type: physicochemical
Protocol: During this procedure, the solution was protected from light. While still protected from light, the linker/antibody solution was reacted on a shaker for 2 hours.
The conjugation solution was removed from 4° C. […] The particle size was measured.
The paclitaxel content was measured using RP-HPLC. The paclitaxel concentration was then adjusted according to the required concentration. The particle size and paclitaxel concentration for the final formulation was measured. […] The resulting solution was then transferred to vials and stored at −80° C.
The Eppendorf tubes were centrifuged to pellet the nanoparticles, and the supernatant was decanted. The pellets were washed three times with PBS. 500 μL of PBS was added to each tube and the pellet was resuspended by sonication (5 seconds and repeated until the particles were resuspended). Particle size was determined using Dynamic Light Scattering.
The particle sizes of the samples were measured.
The paclitaxel content was measured by RP-HPLC and was then adjusted to 5.33 mg/mL. The particle size was measured by DLS. […] The resulting solution was then transferred to vials and stored at −80° C.

MDA-MB-468 = test: Anti-proliferation assay (Cell Titer-Glo); type: cell-based; settings: 3 days of treatment
Protocol: (§1) Anti-proliferation assay. The growth inhibitory activity in vitro was evaluated using an anti-proliferative assay. 40 μL/well of cells was plated into 384-well plates (Corning, 3712) at their optimized densities and allowed to incubate overnight at 37° C. and 5% CO2 The following day, cells were treated with test trastuzumab-nanoparticle formulations and placed back into the incubator at 37° C. and 5% CO2 for 3 days. After 3 days of treatment, cell viability was assessed via the addition of 20 μL/well of Cell Titer-Glo (Promega, G7573). After 30 minutes of incubation, plates were read on the Perkin Elmer Envision for luminescence detection.

CAL-51 = test: Anti-proliferation assay (Cell Titer-Glo); type: cell-based; settings: 3 days of treatment
Protocol: as §1

SK-BR-3 = test: Anti-proliferation assay (Cell Titer-Glo); type: cell-based; settings: 3 days of treatment
Protocol: as §1

BT-474 = test: Anti-proliferation assay (Cell Titer-Glo); type: cell-based; settings: 3 days of treatment
Protocol: as §1

[2] = final formulation, washed particles resuspended in HSA solution
[3] = conjugation solution after overnight incubation at 4° C.

Substance	average particle size [1, 2] [nm]	average particle size [1, 3] [nm]	further results
5:1 cetuximab	149	–	–
10:1 cetuximab	147	–	–
10:1 thiolation linker:HSA	159.8	159	–
20:1 thiolation linker:HSA	171.5	166	–
30:1 thiolation linker:HSA	175.8	215.9	–
40:1 thiolation linker:HSA	196.4	734.1	–
trastuzumab: anti-HER2 antibody	–	–	GI50 (MDA-MB-468): > 13.5 µM; IC50 (MDA-MB-468): > 13.5 µM; GI50 (CAL-51): > 13.5 µM; IC50 (CAL-51): > 13.5 µM; GI50 (SK-BR-3): > 13.5 µM; IC50 (SK-BR-3): > 13.5 µM; GI50 (BT-474): > 13.5 µM; IC50 (BT-474): > 13.5 µM
